Test results reported in US20240059719A1, “GOLD COMPLEXES AS ANTICANCER AGENT” (King Saud University, priority 2023, published 2024).

Test system: MCF-7 breast cancer cells
Assay: Apoptosis analysis (Annexin V Live & Dead Cell Kit, flow cytometry)
Format: cell-based
Details: 24 hours, MCF-7 cells

CNC(=O)c1cc(Oc2ccc(NC(=O)Nc3ccc(Cl)c(C(F)(F)F)c3)cc2)ccn1 [sorafenib]
Induction of apoptosis (folds) (1 μM): 1.2 folds
Induction of apoptosis (folds) (3 μM): 1.3 folds
